{
  "sequences": {"note": "Amino acid sequences for entries named in this document (tags omitted). Residues count along the entry.", "UniProt Q06187, 402-655 limits assumed": "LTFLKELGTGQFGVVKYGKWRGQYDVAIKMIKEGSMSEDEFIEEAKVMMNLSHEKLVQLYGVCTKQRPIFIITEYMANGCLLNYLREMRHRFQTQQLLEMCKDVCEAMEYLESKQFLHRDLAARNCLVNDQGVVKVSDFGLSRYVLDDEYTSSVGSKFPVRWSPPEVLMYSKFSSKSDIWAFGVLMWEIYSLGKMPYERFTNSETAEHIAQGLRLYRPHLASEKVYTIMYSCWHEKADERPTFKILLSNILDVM"},
  "source": "paper PMC8041284",
  "about": "“Tunable Methacrylamides for Covalent Ligand Directed Release Chemistry” (Journal of the American Chemical Society, 2021)",
  "biological_target": "BTK (Homo sapiens, UniProt Q06187)",
  "conditions": "0.75 uM BTK, […] probe 3l, 15 min preincubation; 10 µM; inhibitor",
  "data": [
    {"molecule": "O=C(CBr)N1CC([N+](=O)[O-])([N+](=O)[O-])C1", "values": [
      {"measurement": "BTK inhibition (%)", "result": 18.5, "unit": "%"}
    ]}
  ]
}
